Data taken from patent US10905750B2, “GRP78 antagonist that block binding of receptor tyrosine kinase orphan receptors as immunotherapy anticancer agents” (CREATIVE BIOTHERAPEUTICS, LLC, priority 2017, dated 2021).

What was measured:
[1] = tested on: U-118 MG glioblastoma cells; test: WST-8 proliferation assay, U-118 MG (5 day); conditions: Homo sapiens, 120 h, read-out: Proliferation Inhibition (5 day) IC50, Brain Cancer U118
[2] = tested on: GRP78 treated dendritic cells; test: Tolerogenic phenotype of GRP78 treated dendritic cells (flow cytometry, IL-10 ELISA); assay type: cell-based, human; conditions: dose dependent, in words
Method: Consequently surface GRP78 binding on tumor cells leads to chemo-resistance and proliferation. […] Immature dendritic cells were differentiated from isolated CD14^+ myeloid cells with the addition of GM-CSF and IL-4 for 7 days. GRP78 (10 μg/ml) was added to the cells to produce a tolerogenic phenotype showing up regulation of PD-L1, B7H4, B7H3, IL-10 and down regulation of CD86. Therefore our GRP78 antagonists can potently block the activity of GRP78 on dendritic cells.
FIG. 9A-9C illustrates increasing amounts of the GRP78 antagonists result in blocking GRP78 which reduces checkpoint protein expression on DCs. A tolerogenic dendritic cell phenotype is induced by soluble GRP78 binding. Myeloid CD14+ cells were co-stimulated for 7 days with IL-4, and GMCSF. On day 5 LPS along with or without GRP78 and GRP78 antagonists were added. On day 8, dendritic cells were fixed and stained for flow cytometry. The percent of B7H3, PD-L1, CD86 was measured by flowcytometry and compared to GRP78 untreated dendritic cells.
To determine if GRP78 antagonists can block the tolerogenic phenotype of GRP78 treated dendritic cells, we differentiated immature dendritic cells. From 20 million human pooled PBMCs (AllCells), we isolated about 2.5 million CD14+ monocytes using positive selection with a pluribead CD14 kit (Pluriselect). […] Stained cells were analyzed byflow cytometry analysis. […]

| Molecule | IC50 [1] [µM] | activity for reversing the tolerogenic phenotype of dendritic cells induced by GRP78 [2] |
| --- | --- | --- |
| COc1cccc2c1C(=O)c1c(O)c3c(c(O)c1C2=O)C[C@@](O)(C(=O)CO)C[C@@H]3O[C@H]1C[C@H](N)[C@H](O)[C@H](C)O1 [Doxorubicin] | 0.705 | – |
| K5(3-89 Active Zone)frag-Fc SEQ ID NO:2: 3-89 portion of K5(1-91 Active Zone)frag bound to immunoglobulin via a peptide bond | – | potent nM activity |
